Data published in US12118414B2, “BCL-2 proteins degraders for cancer treatment” (BioVentures, LLC, priority 2018, dated 2024).

Amino acid sequences for entries named in this document (tags omitted).
UniProt P10415, whole entry: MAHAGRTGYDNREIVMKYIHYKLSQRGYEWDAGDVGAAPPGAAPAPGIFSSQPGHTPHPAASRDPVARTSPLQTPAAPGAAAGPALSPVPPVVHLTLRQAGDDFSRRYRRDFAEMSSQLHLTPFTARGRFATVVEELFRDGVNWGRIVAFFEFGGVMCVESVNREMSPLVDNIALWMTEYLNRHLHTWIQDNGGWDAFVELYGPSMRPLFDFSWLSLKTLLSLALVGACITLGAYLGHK

Target: Bcl-2 (Homo sapiens, UniProt P10415)
Assay: AlphaLISA competitive binding assay, Bcl-2
Parameters: purchased Sigma-Aldrich
Settings: His-tagged Bcl-2, biotin-tagged BIM peptide, 24 h incubation
Description: In order to evaluate the binding affinities of compound #55 for Bcl-2 family proteins, AlphaLISA competitive assay was performed at room temperature and reagents were diluted in a buffer containing 250 mM HEPES pH 7.5, 1 M NaCl, 1% BSA, and 0.05% Tween-20. Purified recombinant His-tagged Bcl-xL/Bcl-2/Bcl-w (Sigma-Aldrich, St. Louis, MO) were incubated with increasing concentrations of compound #55 and a fixed concentration of biotin-tagged Bad (for Bcl-xL) or BIM peptides (for Bcl-2 and Bcl-w) (AnaSpec, Fremont, CA) to a final volume of 40 µL in 96-well PCR plate. After 24 h incubation, 5 μL 6×His-Acceptor beads (final concentration 20 μg/mL) (PerkinElmer, Houston, TX) were added to each well and incubated for 1 h. Thereafter, 5 μL streptavidin-donor beads were added (final concentration 20 μg/mL) (PerkinElmer) to each well and incubated for 0.5 h. At the end of the incubation period, 17 μL of each sample was transferred in adjacent wells of 384-well proxy plate. The plate was scanned using Alpha program on Biotek's Synergy Neo2 multi-mode plate reader. The inhibition constant (Ki) was calculated using non-linear regression, one site, competitive binding, Fit Ki function on GraphPad Prism based on experimentally determined Kd for each protein/peptide pair.

Ki: 0.194 nM
SMILES: CC1(C)CCC(c2ccc(Cl)cc2)=C(CN2CCN(c3ccc(C(=O)NS(=O)(=O)c4ccc(N[C@H](CCN5CCOCC5)CSc5ccccc5)c(S(=O)(=O)C(F)(F)F)c4)cc3)CC2)C1 [ABT-263, navitoclax, reference compound]
